Where two headings read alike, the source gives them in different places.

The subject of one data set is neutrophils. As to the kind of experiment: Effect of KFP-tetramer / 16-KFP on neutrophil viability (microscopy, flow cytometry). The data set is classed as cell-based, human.
The subject of the next data set is 4T1 cells. The conditions noted are these: LQI tetramer 31 nM, 310 nM and 3.1 μM; KFP tetramer 3.9 μM; 18 hours.
The conditions of data set [1]: 7.7 μM, mouse serum 37° C.

As for “(KFPDLDSRRLPHMSL (SEQ ID NO: 1) Doa-Doa-C)4-(Mpa)-4-Lys2-Lys-beta-Ala-Lys(Biotin)-beta-Ala-OH [KFP tetramer]”, the “effect on neutrophil viability” value in the data set with neutrophils was “no effect”. Further, the “effect on cell viability” value with 4T1 cells is “did not affect cell viability”.
For the substance “(LQIQSWSSSP (SEQ ID NO: 9) Doa-Doa-C)4-(Mpa)-4-Lys2-Lys-beta-Ala-Lys(Biotin)-beta-Ala-OH [LQI tetramer]”, the “binding of all HDNs after serum incubation” value was found to be 95% in data set [1] (20 min), 95% in data set [1] (40 min) and 85% in data set [1] (1 hour). The “effect on cell viability” value in the data set on 4T1 cells is recorded as “did not affect cell viability”.

For the origin of these results see patent US11952431B2, “Neutrophil-binding peptides” (YISSUM RESEARCH DEVELOPMENT COMPANY OF THE HEBREW …, priority 2020, dated 2024).
